Values of other authors in patent publication US20220372042A1, “CONDENSED HETEROCYCLES AS BCL-2 INHIBITORS” (Newave Pharmaceutical Inc., priority 2019, published 2022).

Protein sequences, listed by entry. Tags and fused reporters are not part of them.
UniProt Q07820, whole entry: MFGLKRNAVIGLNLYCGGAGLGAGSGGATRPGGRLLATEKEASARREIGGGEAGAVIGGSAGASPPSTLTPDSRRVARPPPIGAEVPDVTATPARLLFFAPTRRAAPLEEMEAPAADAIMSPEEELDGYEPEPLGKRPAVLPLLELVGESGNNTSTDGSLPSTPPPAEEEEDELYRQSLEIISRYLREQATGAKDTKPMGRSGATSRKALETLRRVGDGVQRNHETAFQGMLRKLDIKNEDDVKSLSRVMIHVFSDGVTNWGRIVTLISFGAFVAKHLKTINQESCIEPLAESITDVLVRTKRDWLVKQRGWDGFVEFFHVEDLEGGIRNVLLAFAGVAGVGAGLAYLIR
UniProt P10415, whole entry: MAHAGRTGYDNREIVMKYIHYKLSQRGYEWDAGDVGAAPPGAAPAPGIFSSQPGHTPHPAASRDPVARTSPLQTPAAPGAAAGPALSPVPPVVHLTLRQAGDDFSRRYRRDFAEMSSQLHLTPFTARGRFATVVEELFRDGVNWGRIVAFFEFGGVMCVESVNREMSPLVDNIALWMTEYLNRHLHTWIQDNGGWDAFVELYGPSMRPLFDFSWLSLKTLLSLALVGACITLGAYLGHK

Assays:
[1] = target: Mcl-1 (Homo sapiens, UniProt Q07820)
[2] = target: BCL-2 (Homo sapiens, UniProt P10415)

Ki [2] | SMILES | activity to Mcl-1 [1]
– | CC1(C)CCC(CN2CCN(c3ccc(C(=O)NS(=O)(=O)c4ccc(NCC5CCOCC5)c([N+](=O)[O-])c4)c(Oc4cnc5[nH]ccc5c4)c3)CC2)=C(c2ccc(Cl)cc2)C1 [ABT-199] | no activity
≤ 1 nM | CC1(C)CCC(c2ccc(Cl)cc2)=C(CN2CCN(c3ccc(C(=O)NS(=O)(=O)c4ccc(N[C@H](CCN5CCOCC5)CSc5ccccc5)c(S(=O)(=O)C(F)(F)F)c4)cc3)CC2)C1 [ABT-263] | –
